{"sequences": {"note": "By UniProt entry, the sequences of proteins in these tests, tags left out. Where a name states a change or a piece, a line headed by the entry shows the natural chain unless it says otherwise.", "UniProt Q01727": "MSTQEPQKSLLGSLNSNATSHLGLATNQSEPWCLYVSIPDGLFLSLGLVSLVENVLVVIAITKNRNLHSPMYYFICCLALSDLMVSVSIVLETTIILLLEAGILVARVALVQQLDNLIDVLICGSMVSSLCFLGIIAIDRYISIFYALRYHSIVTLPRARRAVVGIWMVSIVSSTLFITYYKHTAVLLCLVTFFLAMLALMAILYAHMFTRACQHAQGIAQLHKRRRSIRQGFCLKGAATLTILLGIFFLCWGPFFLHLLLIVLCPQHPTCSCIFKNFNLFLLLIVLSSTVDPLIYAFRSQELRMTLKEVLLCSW"}, "source": "ChEMBL document CHEMBL3421543", "about": "“Melanocortin antagonist tetrapeptides with minimal agonist activity at the mouse melanocortin-3 receptor” (ACS Med Chem Lett, 2015)", "biological_target": "Melanocyte-stimulating hormone receptor (Mus musculus, UniProt Q01727)", "assay": "Agonist activity at mouse melanocortin-1 receptor transfected in HEK293 cells after 6 hrs by beta-galactosidase reporter gene assay", "assay_type": "cell-based"}
{"smiles": "CC(=O)N[C@@H](Cc1cnc[nH]1)C(=O)N[C@H](Cc1ccccc1)C(=O)N[C@@H](CCCN=C(N)N)C(=O)N[C@@H](Cc1c[nH]c2ccccc12)C(N)=O", "values": [{"measurement": "EC50", "result": 71, "unit": "nM"}]}
